# Test results: US6753150B2, “Method for determining whether a compound is capable of inhibiting the interaction of a peptide with rage” (The Trustees of Columbia University in the City of New York, priority 1998, dated 2004)
# Chains of the proteins cited; added tags and fusions are not shown. Residues count along the entry.
# UniProt Q15109, 23-342 limits assumed: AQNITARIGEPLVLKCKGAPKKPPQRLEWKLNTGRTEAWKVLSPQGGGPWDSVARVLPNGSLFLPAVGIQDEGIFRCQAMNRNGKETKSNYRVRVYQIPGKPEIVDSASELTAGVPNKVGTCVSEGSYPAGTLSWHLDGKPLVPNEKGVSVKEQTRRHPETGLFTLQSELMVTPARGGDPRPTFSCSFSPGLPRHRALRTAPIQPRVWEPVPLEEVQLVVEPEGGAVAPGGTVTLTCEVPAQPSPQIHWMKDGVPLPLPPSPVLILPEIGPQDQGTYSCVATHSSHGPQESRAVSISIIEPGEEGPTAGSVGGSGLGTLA
# UniProt Q15109, 23-404: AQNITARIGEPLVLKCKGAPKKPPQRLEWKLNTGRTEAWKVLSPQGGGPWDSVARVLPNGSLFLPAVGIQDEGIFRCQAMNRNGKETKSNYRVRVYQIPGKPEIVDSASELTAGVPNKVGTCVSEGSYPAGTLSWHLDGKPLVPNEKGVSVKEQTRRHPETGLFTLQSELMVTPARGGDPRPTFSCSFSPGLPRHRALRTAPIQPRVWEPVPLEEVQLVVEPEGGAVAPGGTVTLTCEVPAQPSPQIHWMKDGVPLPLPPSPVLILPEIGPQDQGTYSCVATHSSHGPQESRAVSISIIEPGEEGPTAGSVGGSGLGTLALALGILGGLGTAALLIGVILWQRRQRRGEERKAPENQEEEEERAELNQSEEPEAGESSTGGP
# Key:
# sRAGE [1] = biological target: T1, sRAGE (Homo sapiens, UniProt Q15109); assay: Radioligand binding of 125I-sRAGE to immobilized AGE-modified proteins (dose response); details: immobilized AGE-protein
# T1 construct: full length soluble RAGE (100 nM; specific activity 7,000-8,000 cpm/ng)
# Procedure: FIG. 1. Radioligand binding studies: dose response experiments. CML- or pentosidine BSA (5 μg) was immobilized to plastic wells and radioligand binding assays performed with increasing concentrations of purified ^125-I sRAGE +/− excess unlabelled sRAGE (50-fold molar excess). Bound tracer was eluted with buffer containing NP40 (1%) and NaCl (0.15M) and the data subjected to analysis as described in the Experimental Details section.
# (§1) Radioligand binding assays. CML (free), CML-modifications of proteins, pentosidine (free), pentosidine modifications of proteins, methylglyoxal modifications of proteins were prepared according to previously published methods (24-30). All materials were devoid of endotoxin using the Detoxi-gel system (PIERCE®) and tested for negativity in the limulus amebocyte assay (SIGMA®). Gas chromatography-mass spectroscopy and HPLC analyses were performed and verified the identity of the prepared AGES. Specific AGE or control protein (5 μg) was loaded onto the wells of a NUNC MAXISORP® dish in sodium bicarbonate/sodium carbonate buffer (pH 9.8) overnight at 4° C. […] The material retrieved was then counted in a gamma counter (LKB). […]
# (§2) Radioligand binding studies. […] Radioligand binding assays were performed as described and equilibrium binding data was analyzed according to the equation of Klotz and Hunston. […]
# sRAGE [2] = biological target: T1, sRAGE; assay: Radioligand competition: 125I-sRAGE (100 nM) binding to immobilized CML-BSA with competitors; details: competitor in excess
# Procedure: FIG. 2. Radioligand binding studies: competition experiments. CML-BSA was immobilized to wells; binding was performed with ^125-I sRAGE (100 nM) with the indicated competitors. […] Percent maximal binding is reported compared to binding to immobilized CML-BSA without competitor (100%).
# FIG. 3. Radioligand binding studies: CML-adducts interact with the V-type Ig domain of RAGE. CML-BSA was immobilized to wells; binding was performed with ^125-I sRAGE (100 nM) in the presence or absence of excess unlabelled (100-fold) V-type Ig domain, C1 Ig domain or C2 Ig domain. Percent maximal binding is reported compared to binding to immobilized CML-BSA without competitor (100%).
# as §1, with “AGES.” for “AGES. Specific AGE or control protein (5 μg) was loaded onto the wells of a NUNC MAXISORP® dish in sodium bicarbonate/sodium carbonate buffer (pH 9.8) overnight at 4° C.”
# as §2
# [3] = tested on: Human umbilical vein endothelial cells (HUVEC); assay: Molt-4 binding assay on stimulated endothelial cells (cell surface VCAM-1 functional activity); assay type: cell-based; details: preincubation or co-incubation with CML-ovalbumin
# Procedure: FIG. 4. Cellular activation studies: endothelial cells. HUVEC were incubated in the presence of the indicated mediators for 6 hrs. Where indicated, certain cells were preincubated with anti-RAGE/preimmune IgG for one hour. Cells were washed and incubated with ^51Cr-Molt-4 cells (bear VLA-4) for 1 hr. Bound radioactivity was eluted in the presence of SDS (1%) and counted in a gamma counter. Results are reported compared with Molt-4 cell binding to cells exposed to native ovalbumin (defined as “1”).
# Molt-4 binding assays. Molt-4 binding assays were performed according to the general method of Marui et al (32). Human umbilical vein endothelial cells were stimulated with the indicated compound in the presence or absence of competitors for 6 hrs at 37° C. Molt-4 cells, which express VLA-4, ligand for VCAM-1, (ATCC) were grown in RPMI 1640 containing fetal bovine serum (10%). […] Before the binding assay, unincorporated radioactivity was removed by washing cells with Hank's balanced salt solution, and then resuspending them in RPMI containing fetal bovine serum (10%) at 4×10^6 cells/ml. Molt-4 cells were incubated with endothelial cells for one hr at 37° C., and nonadherent cells were removed by washing twice with Medium 199 containing fetal bovine serum (1%); adherent cells were solubilized in SDS (1%), and radioactivity counted in a gamma counter. […]
# [4] = tested on: human peripheral blood-derived mononuclear phagocytes; assay: Monocyte chemotaxis assay in modified chemotaxis chambers; assay type: cell-based
# Procedure: FIG. 5. Cellular activation studies: mononuclear phagocytes. Human monocytes (5×10^4) were placed in the upper wells of modified chemotaxis chambers with the indicated mediators in the lower wells for three hrs. Membranes were then stained with Giemsa and cells that migrated through the membrane toward the chemotactic stimulus counted per hpf.
# Chenotaxis assays. Chemotaxis assays, performed in 48-well microchemotaxis chambers (Neuro-Probe) containing polycarbonate membranes were performed as previously described (15). In these studies, human peripheral blood-derived mononuclear phagocytes, which bear cell surface RAGE, were employed.
# Mononuclear phagocytes. To determine if CML-ovalbumin mediated increased human peripheral blood-derived monocyte chemotaxis, experiments were performed in modified chemotaxis chambers as described above.
# NF-κB = assay: Electrophoretic mobility shift assay for NF-κB in endothelial cells; assay type: cell-based, human; details: anti-RAGE IgG 70 μg/ml (high) and 7 μg/ml (low)
# Procedure: FIG. 6. Electrophoretic mobility shift assay. Human umbilical vein endothelial cells (HUVEC) were incubated with mediators for 6 hrs; nuclear extracts were prepared and electrophoretic mobility shift assays performed with ^32P-labelled probe for NF-κB. Lanes contain mediators as above (all AGEs were added at 50 μg/ml). Lanes contain: lane 1, CML-ovalbumin; lane 2, native ovalbumin; lane 3, pentosidine ovalbumin; lane 4, nonimmune IgG and CML ovalbumin; lane 5, anti-RAGE IgG: 7 μg/ml; lane 6; anti-RAGE IgG: 70 μg/ml; lane 7: CML-ovalbumin/100-fold excess unlabelled NF-κB. Supershift assays (lane 8: anti-p50 IgG; lane 9:anti-p65 IgG; lane 10:both anti-p50 IgG and anti-p65 IgG; lane 11: preimmune IgG), all + CML-ovalbumin. Lane 12:CML-ovalbumin: vector alone/13:tail-deleted RAGE.
# Electrophoretic mobility shift assays (EMSA). Nuclear extracts were prepared from HUVECs by the method of Schreiber (33). Protein concentration was determined using the Bradford reagent (BIO-RAD®). Double-stranded oligonucleotides representing a portion of the human VCAM-1 promoter containing an NF-κB site were synthesized (Life Technologies). Oligonucleotides were used as probe as follows: NF-κB: 5′[…]3′ (SEQ ID No. 1). Probes were 5′-end labelled with g-[^32P] ATP and polynucleotide kinase. Each reaction contained 10 fmol of probe and 2-5 microliter (1.5 μg) of nuclear extract. […]
# RAGE = RAGE (Homo sapiens, UniProt Q15109); assay: Binding of CML-modified proteins to immobilized RAGE (Example 2)
# Excerpt: Advanced glycation endproducts (AGEs) are heterogeneous compounds that form in hyperglycemia, highly-oxidized environments and renal failure. AGEs accumulate in the plasma and tissues of patients with diabetes; their presence has been linked to the development of medical complications. Interaction of AGEs with Receptor for AGE ([…]) activates cells such as endothelial cells (Ecs) and monocytes (Mps) in a manner favoring the development of vascular/inflammatory cell complications. AGEs consist of structures such as carboxymethyl-lysine and pentosidine (both free and protein-bound forms). To begin to delineate which AGE forms interact with RAGE, we prepared free CML and pentosidine, as well as CML- and pentosidine bovine serum albumin (BSA) and ovalbumin (OVA). CML-BSA and CML-OVA bound immobilized RAGE in a dose-dependent and saturable manner, with Kd=60 nM, a process inhibited in the presence of anti-RAGE IgG and soluble RAGE (sRAGE), but not by nonimmune IgG, BSA, OVA, free CML or free pentosidine.
Substance,specific binding to sRAGE/RAGE (sRAGE [1]),effect on binding of 125I-sRAGE to immobilized CML-BSA (sRAGE [2]),effect on CML-ovalbumin-induced Molt-4 binding to HUVEC [3],effect on CML ovalbumin-mediated monocyte chemotaxis [4],effect on CML-ovalbumin-induced activation of NF-κB in HUVEC (NF-κB),effect on CML-ovalbumin-induced activation of NF-κB in HUVEC (NF-κB; listed as soluble RAGE),effect on binding of CML-BSA and CML-OVA to immobilized RAGE (RAGE)
methylglyoxal-HSA: methylglyoxal-modified human serum albumin,did not bind specifically,–,–,–,–,–,–
sRAGE: soluble receptor for advanced glycation endproduct(s),–,inhibited binding,diminished binding,completely inhibited,inhibited activation,inhibited,inhibited
